Data on 1 substance can be found in patent US20090142280A1.

Where only a bound is given, the exact number is not on record here.

Targets include elastase (Sigma-Aldrich); trypsin (Sigma-Aldrich); urokinase.
Common to all, as to assay: cell-based or functional assay
For experiment [1], the target named is chymotrypsin (Sigma-Aldrich).
The target of experiment [2] is kallikrein (Sigma-Aldrich).

In turn, “aprotinin (Sigma-Aldrich) (from UniProt P00974 36-93)” gave a Survival of HB64 (1 mg/mL) with chymotrypsin 25 µg/mL and aprotinin 0.02 mg/mL, LC/MS, Expt. 35 in experiment [1] of less than 24 h. In the experiment with elastase (Sigma-Aldrich), this substance yielded a Survival of HB64 (1 mg/mL) with elastase 25 µg/mL and aprotinin 0.02 mg/mL, LC/MS, Expt. 23 of less than 1 h. Also, in experiment [2], the Survival of LL-37 (1 mg/mL) with kallikrein 22 µg/mL and aprotinin 0.02 mg/mL, LC/MS, Expt. 48 was less than 24 h. Also, in the experiment with trypsin (Sigma-Aldrich), the Survival of HB64 (1 mg/mL) with trypsin 25 µg/mL and aprotinin 0.02 mg/mL, LC/MS, Expt. 5 is greater than 24 h; the Survival of HB168 (1 mg/mL) with trypsin 25 µg/mL and aprotinin 0.02 mg/mL, LC/MS, Expt. 7 was greater than 24 h; the Survival of HB1345 (1 mg/mL) with trypsin 25 µg/mL and aprotinin 0.02 mg/mL, LC/MS, Expt. 9 is greater than 24 h. Moreover, the Survival of LL-37 (1 mg/mL) with urokinase 22 µg/mL and aprotinin 0.02 mg/mL, LC/MS, Expt. 52 with urokinase is greater than 24 h.
